Results on four substances are retold here after paper PMC8342319, “Predicting blood-to-plasma concentration ratios of drugs from chemical structures and volumes of distribution in humans” (Molecular Diversity, 2021).

The conditions of data set [1]: human; cited from earlier work.
For data set [2] the following is noted: human.
The subject of a further data set is plasma protein. The settings on record: cited from earlier work.

Take Ascorbic acid [reference compound]: the “Rb_Human (blood-to-plasma concentration ratio)” value in data set [1] is reported as 0.82.

Take Buprenorphine: the “in vivo MRT_(hr)_Human” value in data set [2] is 4.298 h. As to Maraviroc, in the data set on plasma protein (human, collected value, median if multiple values were reported, ref: Table S1), the “fp_Human (free fraction in plasma)” value is given as 0.250. Consider Tenoxicam, for which, in the data set with plasma protein, the fp_Human is 0.010.
